target: human S1P1 receptors (Homo sapiens (Human), UniProt P21453); test: Human S1P1 Receptor Calcium FLIPR Antagonist Assay (HeLa Gα16 S1P1); format: cell-based; conditions: relative antagonism vs probing agonist GNF-AC-1 at EC80, HeLa-S1P1/Gα16 cells
Text: Human S1P1 Receptor Calcium FLIPR Antagonist Assay
The assay measures intracellular changes of Ca^2+ mediated by the synthetic probing agonist 3-{[2-(2-Trifluoromethyl-biphenyl-4-yl)-benzo[b]thiophen-5-ylmethyl]-amino}-propionic acid (GNF-AC-1) in the HeLa-S1P1/Gα16 cell clone 1: HeLa (human cervix carcinoma, ATCC CCL2) cells stably expressing N-terminally myc-tagged human S1P1 receptors (GenBank™ accession No. NM_001400; UNIPROT P21453) and promiscuous Gα16 protein (GenBank™ accession number M63904, Swissprot P30679) are cultured at 37° C., 5% CO2, and 95% relative humidity. The cells are plated in 384 well black plates (10′000 cells per well). After 24 hours the cells are loaded with Fluo-4-AM (1.6 μM in HBSS and 2.5 mM probenicid) for 1 hour at 37° C. After washing, the cells are transferred to the FLIPR. The test compounds are added at different concentrations (≦100 μM) in HBSS in the presence of 0.1% BSA and changes in fluorescence are recorded (indication of agonism). The probing agonist is added 20-30 minutes afterwards to the wells at a concentration giving 80% of the maximal activity (EC80). After each addition, time points are collected as follows: 20 time points (2 seconds) before the addition of the agonist (Fmin) and 60 time points (1 or 2 seconds) after the addition of the probing agonist. This allows the determination of the maximal fluorescence (Fmax). The ratio (Fmax−Fmin)/Fmin is plotted against the log of the concentration of the test compounds and the IC50 (relative antagonism) is calculated using the XLfit-4 software. […] A concentration-response curve of the probing agonist is determined on each plate in parallel.

Protein sequences, listed by entry. Tags and fused reporters are not part of them.
UniProt P21453, whole entry: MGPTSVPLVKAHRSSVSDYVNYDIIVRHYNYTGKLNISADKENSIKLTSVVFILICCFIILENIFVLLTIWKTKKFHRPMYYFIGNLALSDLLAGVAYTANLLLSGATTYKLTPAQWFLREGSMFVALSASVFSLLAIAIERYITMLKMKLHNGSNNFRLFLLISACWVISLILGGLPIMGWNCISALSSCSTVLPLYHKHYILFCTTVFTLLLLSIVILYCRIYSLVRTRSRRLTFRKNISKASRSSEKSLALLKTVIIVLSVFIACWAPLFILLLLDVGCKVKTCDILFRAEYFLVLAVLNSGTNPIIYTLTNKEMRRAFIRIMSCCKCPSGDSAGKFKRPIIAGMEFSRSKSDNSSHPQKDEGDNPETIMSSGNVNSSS

IC50, 1.2 nM:
CC[C@@H](Nc1cc(CN2CCC(C)(C(=O)O)C2)c(Cl)cn1)c1ccc(Cl)c(C)c1 (single isomer, unassigned) [Example 86]
CC[C@@H](Nc1ccc(C)c(CNCCC(=O)O)c1)c1cc(C)c(Cl)c(C)c1 [Example 45, 3-{5-[(R)-1-(4-Chloro-3,5-dimethyl-phenyl)-propylamino]-2-methyl-benzylamino}-propionic acid]
CC[C@@H](Nc1ccc(Cl)c(CNCCC(=O)O)c1)c1cc(C)c(Cl)c(C)c1 [Example 53, 3-{2-Chloro-5-[(R)-1-(4-chloro-3,5-dimethyl-phenyl)-propylamino]-benzylamino}-propionic acid]
CC[C@@H](Nc1cc(CN2CC[C@@H](C(=O)O)C2)c(Cl)cn1)c1cc(C)c(Cl)c(C)c1 [Example 59, (R)-1-{5-Chloro-2-[(R)-1-(4-chloro-3,5-dimethyl-phenyl)-propylamino]-pyridin-4-ylmethyl}-pyrrolidine-3-carboxylic acid]
CC[C@@H](Nc1ccc(Cl)c(CN2CC(C)(C(=O)O)C2)c1)c1cc(C)c(Cl)c(C)c1 [Example 66, 1-{2-Chloro-5-[(R)-1-(4-chloro-3,5-dimethyl-phenyl)-propylamino]-benzyl}-3-methyl-azetidine-3-carboxylic acid]
Cc1cc([C@H](Nc2cccc([C@H](C)NCCC(=O)O)c2)C(F)(F)F)ccc1Cl [Example 73, 3-((S)-1-{3-[(S)-1-(4-Chloro-3-methyl-phenyl)-2,2,2-trifluoro-ethylamino]-phenyl}-ethylamino)-propionic acid]

— US8791100B2 (Novartis AG, priority 2010, dated 2014)
